Data taken from patent US6936585B2, “Corticotropin releasing factor 2 receptor agonists” (priority 2002, dated 2005).

Experiments:
CRF2R = target: T1, CRF2R (Homo sapiens, UniProt Q13324); assay: CRF2R agonist activation (EC50 / Emax), called comparative CRF binding; assay type: cell-based; conditions: for Emax: read-out: CRF2R Emax
T1 sequence (Q13324 1-411): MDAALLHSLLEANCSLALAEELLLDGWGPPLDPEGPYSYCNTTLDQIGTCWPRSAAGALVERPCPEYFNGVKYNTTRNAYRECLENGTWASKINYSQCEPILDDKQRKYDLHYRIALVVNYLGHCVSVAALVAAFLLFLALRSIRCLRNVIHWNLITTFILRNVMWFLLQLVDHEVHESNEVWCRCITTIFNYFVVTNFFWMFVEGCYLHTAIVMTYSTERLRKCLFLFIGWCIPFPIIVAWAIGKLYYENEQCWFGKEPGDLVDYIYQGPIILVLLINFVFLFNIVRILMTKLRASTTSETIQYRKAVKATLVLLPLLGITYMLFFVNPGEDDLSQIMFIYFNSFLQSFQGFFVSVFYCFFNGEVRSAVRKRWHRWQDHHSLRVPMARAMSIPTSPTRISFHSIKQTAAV
Outline: (§1)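 CRFR-expressing cells + peptide vs vehicle; read-out cAMP (lysate assay) or CRE-linked reporter expression (luciferase, CAT, fluorescent protein, alkaline phosphatase, etc.). Signal compared against vehicle-treated cells.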

CRF1R = target: T2, CRF1R (Homo sapiens, UniProt P34998); assay: CRF1R agonist activation (EC50 / Emax), called comparative CRF binding; assay type: cell-based; conditions: for Emax: read-out: CRF1R Emax; for EC50: CRF1R EC50
T2 sequence (P34998 24-415): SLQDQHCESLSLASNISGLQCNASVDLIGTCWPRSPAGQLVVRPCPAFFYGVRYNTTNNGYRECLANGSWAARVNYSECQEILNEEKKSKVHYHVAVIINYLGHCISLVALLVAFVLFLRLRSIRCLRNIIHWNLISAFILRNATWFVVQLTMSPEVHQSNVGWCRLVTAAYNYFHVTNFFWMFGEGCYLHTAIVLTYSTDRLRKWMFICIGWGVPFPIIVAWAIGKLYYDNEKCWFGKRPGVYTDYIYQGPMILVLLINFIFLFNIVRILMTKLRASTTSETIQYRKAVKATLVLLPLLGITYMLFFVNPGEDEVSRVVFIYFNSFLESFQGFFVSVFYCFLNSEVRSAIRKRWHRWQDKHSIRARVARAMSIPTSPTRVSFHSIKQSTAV
Outline: as §1

SMILES | Emax (CRF2R) [%] | Emax (CRF1R) [%] | EC50 (CRF2R) [µM] | EC50 (CRF1R) [µM]
CC[C@H](C)[C@H](NC(=O)[C@@H](NC(=O)[C@H](CC(=O)O)NC(=O)[C@H](CC(C)C)NC(=O)[C@H](CC(C)C)NC(=O)[C@H](CC(C)C)NC(=O)[C@H](CCCNC(=N)N)NC(=O)[C@H](CC(N)=O)NC(=O)[C@H](CC(N)=O)NC(=O)[C@H](C)NC(=O)[C@H](C)NC(=O)[C@H](CCC(N)=O)NC(=O)[C@H](CCC(N)=O)NC(=O)[C@H](CCCCN)NC(=O)[C@H](CCC(=O)O)NC(=O)[C@H](CCCCN)NC(=O)[C@H](CCC(=O)O)NC(=O)[C@H](CCC(N)=O)NC(=O)[C@H](CCCCN)NC(=O)[C@H](CCC(=O)O)NC(=O)[C@@H](NC(=O)[C@H](CCC(=O)O)NC(=O)[C@@H](NC(=O)[C@H](CCSC)NC(=O)[C@H](CCCCN)NC(=O)[C@H](CCCNC(=N)N)NC(=O)[C@H](CC(C)C)NC(=O)[C@H](CC(C)C)NC(=O)[C@H](CC(C)C)NC(=O)[C@H](CCC(N)=O)NC(=O)[C@@H]1CCCN1C(=O)[C@H](CC(C)C)NC(=O)[C@H](CC(=O)O)NC(=O)[C@@H](NC(=O)[C@H](CO)NC(=O)[C@@H](NC(=O)[C@@H]1CCCN1C(=O)[C@@H]1CCCN1C(=O)CNC(=O)[C@@H]1CCC(=O)N1)[C@@H](C)CC)[C@@H](C)CC)[C@@H](C)CC)[C@@H](C)CC)[C@@H](C)O)C(N)=O [compound 196] | 97 | 96 | – | –
CC[C@H](C)[C@H](NC(=O)[C@@H](NC(=O)[C@H](CC(=O)O)NC(=O)[C@H](CC(C)C)NC(=O)[C@H](CC(C)C)NC(=O)[C@H](CC(C)C)NC(=O)[C@H](C)NC(=O)[C@H](CC(N)=O)NC(=O)[C@H](CC(N)=O)NC(=O)[C@H](C)NC(=O)[C@H](C)NC(=O)[C@H](CCC(N)=O)NC(=O)[C@H](CCC(N)=O)NC(=O)[C@H](CCCCN)NC(=O)[C@H](CCC(=O)O)NC(=O)[C@H](CCCCN)NC(=O)[C@H](CCC(=O)O)NC(=O)[C@H](CCC(N)=O)NC(=O)[C@H](CCCCN)NC(=O)[C@H](CCC(=O)O)NC(=O)[C@@H](NC(=O)[C@H](CCC(=O)O)NC(=O)[C@@H](NC(=O)[C@H](CCSC)NC(=O)[C@H](CCCCN)NC(=O)[C@H](CCCNC(=N)N)NC(=O)[C@H](CC(C)C)NC(=O)[C@H](CC(C)C)NC(=O)[C@H](CCC(N)=O)NC(=O)[C@H](CC(C)C)NC(=O)[C@@H]1CCCN1C(=O)[C@H](CC(C)C)NC(=O)[C@H](CC(=O)O)NC(=O)[C@@H](NC(=O)[C@H](CO)NC(=O)[C@@H](NC(=O)[C@@H]1CCCN1C(=O)[C@@H]1CCCN1C(=O)CNC(=O)[C@@H]1CCC(=O)N1)[C@@H](C)CC)[C@@H](C)CC)[C@@H](C)CC)[C@@H](C)CC)[C@@H](C)O)C(N)=O [compound 248] | 98 | 32 | 0.0196 | ≥ 1
CC[C@H](C)[C@H](NC(=O)[C@@H](NC(=O)[C@H](C)NC(=O)[C@H](CC(C)C)NC(=O)[C@H](CC(C)C)NC(=O)[C@H](CC(C)C)NC(=O)[C@H](C)NC(=O)[C@H](CC(N)=O)NC(=O)[C@H](CC(N)=O)NC(=O)[C@H](C)NC(=O)[C@H](C)NC(=O)[C@H](CCC(N)=O)NC(=O)[C@H](CCC(N)=O)NC(=O)[C@H](CCCCN)NC(=O)[C@H](CCC(=O)O)NC(=O)[C@H](CCCCN)NC(=O)[C@H](CCC(=O)O)NC(=O)[C@H](CCC(N)=O)NC(=O)[C@H](CCCCN)NC(=O)[C@H](CCC(=O)O)NC(=O)[C@@H](NC(=O)[C@H](CCC(=O)O)NC(=O)[C@@H](NC(=O)[C@@H](NC(=O)[C@H](CCCCN)NC(=O)[C@H](CCCNC(=N)N)NC(=O)[C@H](CC(C)C)NC(=O)[C@H](CC(C)C)NC(=O)[C@@H](NC(=O)[C@H](CCC(N)=O)NC(=O)[C@@H]1CCCN1C(=O)[C@H](CC(C)C)NC(=O)[C@H](CC(=O)O)NC(=O)[C@@H](NC(=O)[C@H](CO)NC(=O)[C@@H](NC(=O)[C@@H]1CCCN1C(=O)[C@@H]1CCCN1C(=O)CNC(=O)[C@@H]1CCC(=O)N1)[C@@H](C)CC)[C@@H](C)CC)[C@@H](C)CC)C(C)C)[C@@H](C)CC)[C@@H](C)CC)[C@@H](C)O)C(N)=O [compound 299] | 71.5 | 10.2 | – | –
CC[C@H](C)[C@H](NC(=O)[C@@H](NC(=O)[C@H](CC(=O)O)NC(=O)[C@H](CC(C)C)NC(=O)[C@H](CC(C)C)NC(=O)[C@H](CC(C)C)NC(=O)[C@H](CCCNC(=N)N)NC(=O)[C@H](CC(N)=O)NC(=O)[C@H](CC(N)=O)NC(=O)[C@H](C)NC(=O)[C@H](C)NC(=O)[C@H](CCC(N)=O)NC(=O)[C@H](CCC(N)=O)NC(=O)[C@H](CCCCN)NC(=O)[C@H](CCC(=O)O)NC(=O)[C@H](CCCCN)NC(=O)[C@H](CCC(=O)O)NC(=O)[C@H](CCC(N)=O)NC(=O)[C@H](CCCCN)NC(=O)[C@H](CCC(=O)O)NC(=O)[C@@H](NC(=O)[C@H](CCC(=O)O)NC(=O)[C@@H](NC(=O)[C@H](CCSC)NC(=O)[C@H](CCCCN)NC(=O)[C@H](CCCNC(=N)N)NC(=O)[C@H](CC(C)C)NC(=O)[C@H](CC(C)C)NC(=O)[C@H](CCC(N)=O)NC(=O)[C@H](Cc1ccccc1)NC(=O)[C@@H]1CCCN1C(=O)[C@H](CC(C)C)NC(=O)[C@H](CC(=O)O)NC(=O)[C@@H](NC(=O)[C@H](CO)NC(=O)[C@@H](NC(=O)[C@@H]1CCCN1C(=O)[C@@H]1CCCN1C(=O)CNC(=O)[C@@H]1CCC(=O)N1)[C@@H](C)CC)[C@@H](C)CC)[C@@H](C)CC)[C@@H](C)CC)[C@@H](C)O)C(N)=O [compound 84] | 100 | 99 | 0.00177 | 0.0822
CC[C@H](C)[C@H](NC(=O)[C@H](CCCNC(=N)N)NC(=O)[C@H](C)NC(=O)[C@H](CC(N)=O)NC(=O)[C@@H](NC(=O)[C@@H](NC(=O)[C@H](C)NC(=O)[C@H](CCC(N)=O)NC(=O)[C@H](CCC(N)=O)NC(=O)[C@H](CCCCN)NC(=O)[C@H](CCC(=O)O)NC(=O)[C@H](CCCCN)NC(=O)[C@H](CCC(=O)O)NC(=O)[C@H](CCC(N)=O)NC(=O)[C@H](CCCCN)NC(=O)[C@H](CCC(=O)O)NC(=O)[C@@H](NC(=O)[C@H](CCC(=O)O)NC(=O)[C@@H](NC(=O)[C@H](CCSC)NC(=O)[C@H](CCCCN)NC(=O)[C@H](CCCNC(=N)N)NC(=O)[C@H](CC(C)C)NC(=O)[C@H](CC(C)C)NC(=O)[C@H](CCC(=O)O)NC(=O)[C@H](CC(C)C)NC(=O)[C@H](CO)NC(=O)[C@H](CC(C)C)NC(=O)[C@H](CC(=O)O)NC(=O)[C@@H](NC(=O)[C@H](CO)NC(=O)[C@@H](NC(=O)[C@@H]1CCCN1C(=O)[C@@H]1CCCN1C(=O)CNC(=O)[C@@H]1CCC(=O)N1)[C@@H](C)CC)[C@@H](C)CC)[C@@H](C)CC)[C@@H](C)CC)[C@@H](C)O)[C@@H](C)O)C(=O)N[C@@H](CC(C)C)C(=O)N[C@@H](C)C(=O)N[C@@H](CCCNC(=N)N)C(=O)N[C@H](C(N)=O)C(C)C [compound 142] | 77 | 85.3 | – | –
CC[C@H](C)[C@H](NC(=O)[C@@H](NC(=O)[C@H](CC(=O)O)NC(=O)[C@H](CC(C)C)NC(=O)[C@H](CC(C)C)NC(=O)[C@H](CC(C)C)NC(=O)[C@H](CCCNC(=N)N)NC(=O)[C@H](CC(N)=O)NC(=O)[C@H](CC(N)=O)NC(=O)[C@H](C)NC(=O)[C@H](C)NC(=O)[C@H](CCC(N)=O)NC(=O)[C@H](CCC(N)=O)NC(=O)[C@H](CCCCN)NC(=O)[C@H](CCC(=O)O)NC(=O)[C@H](CCCCN)NC(=O)[C@H](CCC(=O)O)NC(=O)[C@H](CCC(N)=O)NC(=O)[C@H](CCCCN)NC(=O)[C@H](CCC(=O)O)NC(=O)[C@@H](NC(=O)[C@H](CCC(=O)O)NC(=O)[C@@H](NC(=O)[C@H](CCSC)NC(=O)[C@H](CCCCN)NC(=O)[C@H](CCCNC(=N)N)NC(=O)[C@H](CC(C)C)NC(=O)[C@H](CC(C)C)NC(=O)[C@H](Cc1c[nH]c2ccccc12)NC(=O)[C@@H](NC(=O)[C@@H]1CCCN1C(=O)[C@H](CC(C)C)NC(=O)[C@H](CC(=O)O)NC(=O)[C@@H](NC(=O)[C@H](CO)NC(=O)[C@@H](NC(=O)[C@@H]1CCCN1C(=O)[C@@H]1CCCN1C(=O)CNC(=O)[C@@H]1CCC(=O)N1)[C@@H](C)CC)[C@@H](C)CC)[C@@H](C)O)[C@@H](C)CC)[C@@H](C)CC)[C@@H](C)O)C(N)=O [compound 41] | 100 | 43 | 0.0183 | > 1
